Experimental data as given in ChEMBL document CHEMBL1128174, “Enhanced D1 affinity in a series of piperazine ring substituted 1-piperazino-3-arylindans with potential atypical antipsychotic activity” (J Med Chem, 1995).

Sequences of proteins named here, by UniProt entry; tags and fusion partners are left off.
UniProt P14416, whole entry, looked up: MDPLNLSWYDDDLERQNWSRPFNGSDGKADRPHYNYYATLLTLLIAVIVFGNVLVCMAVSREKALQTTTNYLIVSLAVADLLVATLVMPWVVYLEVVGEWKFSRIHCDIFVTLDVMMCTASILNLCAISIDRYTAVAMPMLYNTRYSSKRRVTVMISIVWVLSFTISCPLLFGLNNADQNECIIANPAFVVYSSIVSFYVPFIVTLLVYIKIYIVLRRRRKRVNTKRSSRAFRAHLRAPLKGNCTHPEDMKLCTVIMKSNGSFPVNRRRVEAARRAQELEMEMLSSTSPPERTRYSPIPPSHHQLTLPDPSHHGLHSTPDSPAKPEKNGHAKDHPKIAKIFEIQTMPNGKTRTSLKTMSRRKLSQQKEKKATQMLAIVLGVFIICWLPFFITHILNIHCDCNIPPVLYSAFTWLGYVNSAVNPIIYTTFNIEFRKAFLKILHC
UniProt P21728, whole entry, looked up: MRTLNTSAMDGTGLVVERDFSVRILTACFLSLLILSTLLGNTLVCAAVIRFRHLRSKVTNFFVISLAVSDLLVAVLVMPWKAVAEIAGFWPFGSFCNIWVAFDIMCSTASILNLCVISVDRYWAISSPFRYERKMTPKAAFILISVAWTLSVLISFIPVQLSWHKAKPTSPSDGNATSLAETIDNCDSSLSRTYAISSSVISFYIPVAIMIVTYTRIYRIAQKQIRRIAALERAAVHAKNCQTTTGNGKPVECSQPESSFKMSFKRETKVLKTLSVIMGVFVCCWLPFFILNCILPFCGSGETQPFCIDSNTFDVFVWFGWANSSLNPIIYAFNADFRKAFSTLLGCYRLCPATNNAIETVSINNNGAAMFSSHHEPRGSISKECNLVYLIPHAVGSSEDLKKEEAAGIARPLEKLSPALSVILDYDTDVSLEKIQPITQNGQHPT

Target: Dopamine D1 and D2 receptor (Homo sapiens) (UniProt P14416+P21728)
Assay: Ratio of binding affinity towards D2 to D1 receptor
Format: protein assay

CC1(C)CN(C2CC(c3ccsc3)c3ccc(Cl)cc32)CCN1 (stereo in doubt; (+)-54)
Ratio: 15
